Laboratory results published in patent publication US6586427B2, “Treatments for nervous disorders” (Pharmacia & Upjohn Company, priority 1998, dated 2003).

Legend:
[1] = in vivo

Question: For `CCOc1ccccc1OC(c1ccccc1)C1CNCCO1` (centres unmarked) [Reboxetine], which antireserpine activity [1] is on record?
Answer: The antireserpine activity was “potent antireserpine activity”.

Question: And the “desensitization of J-adrenergic receptor function” value (J-adrenergic receptor)?
Answer: Its value is “ability to desensitize J-adrenergic receptor function”.
